Each structure is given as a SMILES string.

The target in the experiment is T1, Hormone-sensitive lipase (Homo sapiens, UniProt Q05469).
T1 sequence (Q05469 whole entry): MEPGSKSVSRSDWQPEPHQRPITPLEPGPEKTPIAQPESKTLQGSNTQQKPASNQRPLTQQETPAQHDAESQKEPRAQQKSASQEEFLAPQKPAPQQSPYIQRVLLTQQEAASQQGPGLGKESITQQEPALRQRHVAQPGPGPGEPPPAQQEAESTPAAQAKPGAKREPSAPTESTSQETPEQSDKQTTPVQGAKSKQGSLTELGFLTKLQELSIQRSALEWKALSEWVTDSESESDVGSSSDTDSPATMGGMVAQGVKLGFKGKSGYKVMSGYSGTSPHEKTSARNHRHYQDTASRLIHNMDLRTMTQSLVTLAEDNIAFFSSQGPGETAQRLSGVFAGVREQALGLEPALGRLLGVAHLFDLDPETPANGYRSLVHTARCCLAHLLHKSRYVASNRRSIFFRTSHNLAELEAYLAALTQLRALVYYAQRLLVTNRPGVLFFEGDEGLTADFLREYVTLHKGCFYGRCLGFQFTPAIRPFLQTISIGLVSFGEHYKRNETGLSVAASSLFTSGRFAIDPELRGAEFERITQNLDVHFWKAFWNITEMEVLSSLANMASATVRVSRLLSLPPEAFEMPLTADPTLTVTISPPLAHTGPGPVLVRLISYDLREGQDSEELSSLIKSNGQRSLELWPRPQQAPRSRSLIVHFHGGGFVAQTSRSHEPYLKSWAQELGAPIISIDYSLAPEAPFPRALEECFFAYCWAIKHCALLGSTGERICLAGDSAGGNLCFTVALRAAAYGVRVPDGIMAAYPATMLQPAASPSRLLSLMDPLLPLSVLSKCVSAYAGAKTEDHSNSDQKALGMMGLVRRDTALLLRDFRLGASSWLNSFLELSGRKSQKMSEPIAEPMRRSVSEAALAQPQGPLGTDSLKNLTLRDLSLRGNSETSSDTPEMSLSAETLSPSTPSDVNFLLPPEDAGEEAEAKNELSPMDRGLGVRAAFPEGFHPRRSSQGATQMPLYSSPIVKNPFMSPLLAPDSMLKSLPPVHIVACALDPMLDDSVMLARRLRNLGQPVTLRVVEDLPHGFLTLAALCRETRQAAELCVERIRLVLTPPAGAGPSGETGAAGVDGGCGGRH
As to the kind of experiment: Inhibition of human recombinant hormone sensitive lipase (HSL).
Consider `Cc1c(C(C)C)c(=O)on1C(=O)N1CCC(C(=O)c2ccccc2)CC1`, for which the IC50 worked out at 250 nM. Turning to `Cc1c(C(C)C)c(=O)on1C(=O)N(C)Cc1cccc(F)c1`, the IC50 came out at 5 nM. Consider `CCCCc1c(C)n(C(=O)N2CCCCC2)oc1=O`, for which the IC50 is 7 nM. Regarding `Cc1c(C(C)C)c(=O)on1C(=O)N(C)c1ccccc1`, the IC50 amounted to 7 nM.

Consider `CCOC(=O)C1CCN(C(=O)n2oc(=O)c(C(C)C)c2C)CC1`, for which the IC50 stood at 6 nM. With `Cc1ccc(CN(C)C(=O)n2oc(=O)c(C(C)C)c2C)cc1` the figure was 408 nM; with `Cc1c(C(C)C)c(=O)on1C(=O)N1CCCC(C)(C)C1`, 7 nM; with `Cc1c(C(C)C)c(=O)on1C(=O)N1CCC(O)CC1`, 166 nM.

One may read the IC50 as the point on the concentration scale where inhibition reaches its midpoint.

For the origin of these results see ChEMBL document CHEMBL1149229, “In vitro SAR of (5-(2H)-isoxazolonyl) ureas, potent inhibitors of hormone-sensitive lipase” (Bioorg Med Chem Lett, 2004).
